Measured values published in publication PMC7245249 (Biomedical Journal, 2020).

Assay: in vitro
Conditions: cat (Felis catus)

Structure (SMILES): COc1ccc(C[C@H]2NC[C@H](O)[C@H]2OC(C)=O)cc1 [Anisomycin]
- CC50: 47 ± 12 nM
